Data from ChEMBL document CHEMBL6182870, “Synthesis and biological activity of 1H-pyrrolo[3,2-g]isoquinolines as Haspin kinase inhibitors” (Bioorg Med Chem, 2025).

Assay: Selectivity index, ratio of IC50 for inhibition of recombinant rat DYRK1A kinase domain (1to 499 residues) extracted from bacteria to IC50 for inhibition of human haspin kinase domain (470 to 798 residues) extracted from bacteria using histone H3 (1 to 21) peptide as substrate

Compound: Cn1cc(-c2ccncc2)c2cc3ccncc3cc21
- Ratio IC50: 14.4
